# Binding of CDR-mutated scFvs to a peptide of the spike HR2 region

Data: MIT Lincoln Laboratory AlphaSeq set, Li et al. 2023, doi:10.1038/s41467-023-39022-2, as distributed in FLAb.

The target is the same throughout: PDVDLGDISGINAS, from the HR2 region of SARS-CoV-2 spike.

The variants keep the heavy chain, the linker and the frameworks of Ab-14 (scFv order VH, the linker GGGGSGGGGSGGGGS, VL).
VH: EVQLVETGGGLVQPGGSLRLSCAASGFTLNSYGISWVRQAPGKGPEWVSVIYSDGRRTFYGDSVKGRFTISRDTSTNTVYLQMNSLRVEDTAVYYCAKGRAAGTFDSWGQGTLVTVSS
VL: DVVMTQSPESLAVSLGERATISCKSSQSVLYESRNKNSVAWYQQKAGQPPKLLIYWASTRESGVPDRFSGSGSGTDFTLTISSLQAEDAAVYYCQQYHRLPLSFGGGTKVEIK

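The starting antibody came from a phage panning campaign against this peptide. The variants were designed computationally from a first round of random CDR variants and then made and measured. Their group label is 14L_En_Gen (En: ensemble of fine-tuned language models; Gen: genetic algorithm). Affinity was read by AlphaSeq, a pooled yeast mating assay with surface-displayed partners. The frequency of each diploid, read from paired DNA barcodes, reflects how well the two displayed proteins bind. Scores were corrected for input abundance and mapped to Kd with protein pairs of known affinity run in the same pool. Each pool was mated in six replicate cultures.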

The parent's light chain CDRs are KSSQSVLYESRNKNSVA, WASTRES, QQYHRLPLS; each variant's own CDRs replace them letter for letter.
Scale: log10 of Kd in nM, estimated from mating counts; low values are strong binders.
Replicates are averaged; those with no signal do not enter the mean.
An entry "n.d." has no value in the source: the pair was not observed among the diploids in that replicate. This suggests poor binding but is not conclusive.
Of ten entries with the parent sequence, four were seen in most replicates (averages 0.34 to 2.37), three in one and three in none, so single entries are noisy.

CDR-L1,CDR-L2,CDR-L3,"log10 Kd, replicates","mean, log10 nM",control signals
MISEVMNTMTRHGNNVA,DLTERED,QQYFRLPLS,1.39 1.12 0.60 0.55 0.51 0.95,0.85,0 of 18
IVSQLMLWGYHAKNSIA,EAQMRMN,QQYDRLPLF,n.d. n.d. n.d. n.d. 2.39 n.d.,2.39,0 of 18
HMSMITLQGQRHRNAVA,QMTTREN,QQYDHLPLS,1.66 1.41 1.22 0.97 0.87 1.85,1.33,0 of 18
TISGVMNSQSHVKNNVA,EMSTREK,QQYVRLPLA,1.30 1.28 1.38 1.28 1.96 1.75,1.49,3 of 18 (2.94)
MISQLTNMGTFAINSVA,QASVRNE,QQYDRLPLE,3.80 1.66 2.35 2.92 2.38 4.25,2.89,1 of 18 (3.18)
TISQVMNTLSRQGNNVA,DLQNRED,QQYFRLPLS,0.76 0.53 0.15 0.25 0.55 0.43,0.44,0 of 18
KISQMVRVGSTHVNSIA,EETTRAK,QQYHRLPLF,0.82 0.61 0.60 0.85 0.64 0.65,0.70,0 of 18
QIYQAMHTLSQMKHNVA,DVSERGS,QQYFRLPLS,0.08 0.06 -0.12 -0.25 -0.03 0.01,-0.04,0 of 18
TISQMSTMFSQSINNVA,EVSTREQ,QQYDRLPLM,0.42 0.20 -0.08 -0.21 -0.03 0.03,0.06,0 of 18
MISQLYNMGTFTINSVA,QASLRNE,QQYDRLPLM,1.17 3.37 1.79 1.76 2.01 1.76,1.98,0 of 18
IVSQLMLWGYHMKNSIA,EAEMRLN,QQYERLPLF,n.d. n.d. n.d. n.d. n.d. n.d.,n.d.,0 of 18
KLSMITGHMSMSKNNVA,EMVTRMK,QQYNRLPLS,0.30 0.42 -0.01 0.52 0.46 0.42,0.35,1 of 18 (2.42)
TISQVMNTLSRQGNNVA,DLAEREK,QQYFRLPLS,0.72 0.59 0.01 n.d. 1.14 0.27,0.55,0 of 18
KIGMTLNQLMHKKNNVA,DLVEREM,QQYFRLPLS,0.36 0.79 0.72 0.61 1.10 1.08,0.77,1 of 18 (2.85)
KITATMRFEQKAKNNIA,EVTTRSK,QQYYRLPLS,1.06 0.78 0.84 0.57 0.89 1.14,0.88,0 of 18
KISQMARVGMTHGNSIA,EEATRAK,QQYHRLPLA,n.d. 0.99 n.d. 1.17 n.d. n.d.,1.08,0 of 18
MISEVMNTLTRHGNNVA,DLTERED,QQYFRLPLS,0.64 0.87 0.84 0.97 1.28 0.32,0.82,0 of 18
KIGATLNMLEHKQNNVA,DLVTRED,QQYHRLPLS,0.16 0.15 0.06 0.01 0.01 0.34,0.12,0 of 18
TIGHTLMQGVRNRSNVA,EVSERLN,QQYDRLPLI,2.07 1.75 1.35 1.87 2.04 2.00,1.85,0 of 18
QIYQAMHTLMQVKNNIA,DVTNRNN,QQYHRLPLS,1.16 0.63 0.59 0.78 0.77 0.63,0.76,2 of 18 (2.50)
NIYQAMHTLMQARNNVA,DVTERND,QQYFRLPLS,0.43 0.39 0.43 0.34 0.29 0.33,0.37,1 of 18 (1.96)
MVNGIMDHLSKQTNNVA,EQTTREE,QQYDRLPLS,0.76 0.87 0.65 0.60 0.49 1.13,0.75,1 of 18 (1.87)
MLSQMWGTGMKASNSVA,QASMRFN,QQYHRLPLI,1.80 1.06 1.76 1.51 1.64 1.50,1.54,1 of 18 (1.92)
IVSQLMLWGYKAKNSIA,EAETRGN,QQYDRLPLF,n.d. 1.89 n.d. n.d. n.d. 2.60,2.25,0 of 18
KLSMVTGHMSVSKNNVA,EMETRAN,QQYDRLPLS,0.49 0.36 0.22 0.14 0.30 0.59,0.35,2 of 18 (2.29)
MISQLMNMGQFAINSVA,QASIRNQ,QQYDRLPLM,2.47 1.39 2.12 3.14 3.08 2.10,2.38,0 of 18
TIGQTLMSGVRNRSNVA,EVSERLN,QQYDRLPLV,0.60 0.46 0.52 0.29 0.41 0.33,0.44,0 of 18
QISMLLNFESKKGDNVA,QMETRVN,QQYDRLPLS,1.35 1.25 0.69 1.29 1.01 1.23,1.13,3 of 18 (3.11)
QIYQAMHTLSQMKDNVA,DVNERGQ,QQYYRLPLS,1.54 0.68 1.42 0.32 1.12 0.78,0.98,0 of 18
KLTMITGLEKVQGNNVA,EMETRER,QQYNRLPLS,0.77 0.93 0.79 0.72 0.82 1.05,0.85,0 of 18
TISQVMNSLTRHGNNVA,DLEERED,QQYFRLPLS,0.44 0.52 0.08 0.59 0.47 0.63,0.46,0 of 18
MLSQMWGVGSKMKNSVA,QASMRFN,QQYDRLPLI,0.70 0.68 0.67 0.75 1.73 1.65,1.03,0 of 18

Values of this round are not directly comparable with the first-round values of the same sequences.
The authors' rule: three or more of the six replicates give a measured affinity, fewer mean a poor binder.
Background: pairings of all light chain designs with three empty control strains gave a value in 4% of cases (median 2.64, 5th percentile 1.59). Values in that range, when seen in few replicates, are hard to tell from nonspecific mating. Also given: how often the same scFv was detected with the empty control strains, with their mean in brackets.